Target: T1, human α4β2 nAChRs (Homo sapiens, UniProt P17787+P43681)
T1 construct: expressed in transfected cells
Type: cell-based
Conditions: −80 mV
Method: HEK 293 cells stably expressing human α4β2 nAChRs were cultured by standard methods (Di Resta et al., [2010]). In brief, cultures were maintained in Dulbecco's modified Eagle's medium (Hyclone Laboratories), supplemented with 10% fetal calf serum (Hyclone), 4.5 g/l glutamine, […] hygromycin β, and 0.25 μg/ml amphoterycin B. Cells were grown at 37°C and 5% CO2. For patch-clamp experiments, cells were harvested by treatment with trypsin and plated onto 35 mm Petri dishes (Corning Inc.).
Cells were voltage-clamped by using the whole-cell configuration of the patch-clamp method. Currents were registered with an Axopatch 200B amplifier (Molecular Devices), at room temperature (20–22°C). Micropipettes (3–4 MΩ) were pulled from borosilicate capillaries (GMBH) with a P-97 Flaming/Brown Micropipette Puller (Sutter Instrument Co.). The cell capacitance and series resistance (up to about 75%) were always compensated. Currents were low-pass filtered at 2 kHz and acquired on-line at 5–10 kHz with Molecular Devices hardware and software (pClamp 8 and Axoscope 8). […]
Data were analyzed with Clampfit 9.2 (Molecular Devices) and OriginPro 9 (OriginLab Co.). Theoretical curves best fitting the data were determined by a nonlinear least-squares method (Levenberg-Marquardt algorithm). […]

Sequences of proteins named here, by UniProt entry; tags and fusion partners are left off. Residues count along the entry.
UniProt P17787, 26-502: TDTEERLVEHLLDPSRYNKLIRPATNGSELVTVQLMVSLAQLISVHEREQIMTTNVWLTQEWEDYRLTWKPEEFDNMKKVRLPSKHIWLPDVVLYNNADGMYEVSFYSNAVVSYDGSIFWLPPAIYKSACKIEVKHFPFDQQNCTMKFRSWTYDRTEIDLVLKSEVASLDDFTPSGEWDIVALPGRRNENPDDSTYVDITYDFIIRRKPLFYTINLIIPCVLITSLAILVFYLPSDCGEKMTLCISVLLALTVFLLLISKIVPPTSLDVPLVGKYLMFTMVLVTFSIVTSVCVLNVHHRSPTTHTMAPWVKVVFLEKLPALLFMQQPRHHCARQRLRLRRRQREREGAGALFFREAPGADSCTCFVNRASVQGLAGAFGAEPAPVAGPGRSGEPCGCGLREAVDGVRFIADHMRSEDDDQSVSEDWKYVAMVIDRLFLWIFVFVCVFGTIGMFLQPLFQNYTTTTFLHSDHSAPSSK
UniProt P43681, 29-627 limits assumed: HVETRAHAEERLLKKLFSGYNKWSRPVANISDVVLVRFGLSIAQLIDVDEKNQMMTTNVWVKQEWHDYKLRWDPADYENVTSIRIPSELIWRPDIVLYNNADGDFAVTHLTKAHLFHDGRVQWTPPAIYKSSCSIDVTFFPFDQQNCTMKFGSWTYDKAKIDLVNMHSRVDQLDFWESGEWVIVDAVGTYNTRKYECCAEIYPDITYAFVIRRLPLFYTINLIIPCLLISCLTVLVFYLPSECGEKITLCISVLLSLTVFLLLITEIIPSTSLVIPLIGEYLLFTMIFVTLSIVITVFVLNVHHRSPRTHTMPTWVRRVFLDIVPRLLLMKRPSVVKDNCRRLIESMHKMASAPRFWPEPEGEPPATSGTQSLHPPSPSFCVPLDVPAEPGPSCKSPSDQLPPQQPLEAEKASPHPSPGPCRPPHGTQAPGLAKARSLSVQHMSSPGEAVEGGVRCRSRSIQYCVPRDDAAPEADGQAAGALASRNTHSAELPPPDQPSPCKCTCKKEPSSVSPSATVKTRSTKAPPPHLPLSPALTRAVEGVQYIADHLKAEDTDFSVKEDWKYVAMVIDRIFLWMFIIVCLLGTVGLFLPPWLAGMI

Question: Which results are given for `CO[C@H]1CC=C2CCN3CCC4=C(CC(=O)OC4)[C@]23C1` [DHβE, dihydro-β-erythroidine, reference compound]?
Answer: block of agonist-activated currents (1 μM DHβE, agonists NNK (10 μM), nicotine (300 μM), ACh (300 μM)): more than 90%; average peak current density (10 μM NNK plus 1 μM DHβE, n = 9): 0.53 ± 0.199 pA/pF
